In US20190200664A1, “WATER AND FAT SOLUBLE MICRONUTIENT STABILIZED PARTICLES” (Massachusetts Institute of Technology, priority 2018, published 2019):
Read-outs that look alike come from different tables or passages of the source. Marks after values point to notes of the source that are not given here.

Columns and labels:
[1] = uncooked, maize porridge meal, 4 mg Fe, young women n=20, geometric mean
[2] = Human study 2: iron absorption from stable-isotope labeled wheat bread test meals; conditions: wheat bread baked at 190° C. for 20 minutes, 4 mg Fe, young women n=24; geometric mean (95% CI)

In the case of ferrous sulfate [Non-Encapsulated Fe], the “Fractional Fe Absorption” value [1] is reported as 3.36 (1.48, 7.64)^a %, the “Fractional Fe Absorption” value ([1]; listed as free uncooked iron) is reported as 3.36% and the “fractional iron absorption (FIA)” value [2] is reported as 19.2 (15.3, 24.29) %.
